Assay results: patent US10793547B2, “Modulator of the cystic fibrosis transmembrane conductance regulator, pharmaceutical compositions, methods of treatment, and process for making the modulator” (Vertex Pharmaceuticals Incorporated, priority 2016, dated 2020)

Amino acid sequences for entries named in this document (tags omitted). Chains listed by the source or under a name are the forms on record and can include a tag or linker.
UniProt O75469, whole entry: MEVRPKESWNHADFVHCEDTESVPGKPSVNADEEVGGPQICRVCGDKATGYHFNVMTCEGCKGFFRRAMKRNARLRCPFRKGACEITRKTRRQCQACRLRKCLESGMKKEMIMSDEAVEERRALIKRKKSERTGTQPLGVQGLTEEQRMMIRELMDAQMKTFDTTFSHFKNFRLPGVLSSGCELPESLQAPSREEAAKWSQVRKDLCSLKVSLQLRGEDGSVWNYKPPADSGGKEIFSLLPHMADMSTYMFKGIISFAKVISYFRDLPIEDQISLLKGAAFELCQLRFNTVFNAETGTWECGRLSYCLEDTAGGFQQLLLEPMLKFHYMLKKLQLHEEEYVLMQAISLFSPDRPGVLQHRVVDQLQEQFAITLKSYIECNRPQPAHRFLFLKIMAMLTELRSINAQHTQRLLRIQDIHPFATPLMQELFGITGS
UniProt P13569, with tags, fused parts or gaps DEL508-508: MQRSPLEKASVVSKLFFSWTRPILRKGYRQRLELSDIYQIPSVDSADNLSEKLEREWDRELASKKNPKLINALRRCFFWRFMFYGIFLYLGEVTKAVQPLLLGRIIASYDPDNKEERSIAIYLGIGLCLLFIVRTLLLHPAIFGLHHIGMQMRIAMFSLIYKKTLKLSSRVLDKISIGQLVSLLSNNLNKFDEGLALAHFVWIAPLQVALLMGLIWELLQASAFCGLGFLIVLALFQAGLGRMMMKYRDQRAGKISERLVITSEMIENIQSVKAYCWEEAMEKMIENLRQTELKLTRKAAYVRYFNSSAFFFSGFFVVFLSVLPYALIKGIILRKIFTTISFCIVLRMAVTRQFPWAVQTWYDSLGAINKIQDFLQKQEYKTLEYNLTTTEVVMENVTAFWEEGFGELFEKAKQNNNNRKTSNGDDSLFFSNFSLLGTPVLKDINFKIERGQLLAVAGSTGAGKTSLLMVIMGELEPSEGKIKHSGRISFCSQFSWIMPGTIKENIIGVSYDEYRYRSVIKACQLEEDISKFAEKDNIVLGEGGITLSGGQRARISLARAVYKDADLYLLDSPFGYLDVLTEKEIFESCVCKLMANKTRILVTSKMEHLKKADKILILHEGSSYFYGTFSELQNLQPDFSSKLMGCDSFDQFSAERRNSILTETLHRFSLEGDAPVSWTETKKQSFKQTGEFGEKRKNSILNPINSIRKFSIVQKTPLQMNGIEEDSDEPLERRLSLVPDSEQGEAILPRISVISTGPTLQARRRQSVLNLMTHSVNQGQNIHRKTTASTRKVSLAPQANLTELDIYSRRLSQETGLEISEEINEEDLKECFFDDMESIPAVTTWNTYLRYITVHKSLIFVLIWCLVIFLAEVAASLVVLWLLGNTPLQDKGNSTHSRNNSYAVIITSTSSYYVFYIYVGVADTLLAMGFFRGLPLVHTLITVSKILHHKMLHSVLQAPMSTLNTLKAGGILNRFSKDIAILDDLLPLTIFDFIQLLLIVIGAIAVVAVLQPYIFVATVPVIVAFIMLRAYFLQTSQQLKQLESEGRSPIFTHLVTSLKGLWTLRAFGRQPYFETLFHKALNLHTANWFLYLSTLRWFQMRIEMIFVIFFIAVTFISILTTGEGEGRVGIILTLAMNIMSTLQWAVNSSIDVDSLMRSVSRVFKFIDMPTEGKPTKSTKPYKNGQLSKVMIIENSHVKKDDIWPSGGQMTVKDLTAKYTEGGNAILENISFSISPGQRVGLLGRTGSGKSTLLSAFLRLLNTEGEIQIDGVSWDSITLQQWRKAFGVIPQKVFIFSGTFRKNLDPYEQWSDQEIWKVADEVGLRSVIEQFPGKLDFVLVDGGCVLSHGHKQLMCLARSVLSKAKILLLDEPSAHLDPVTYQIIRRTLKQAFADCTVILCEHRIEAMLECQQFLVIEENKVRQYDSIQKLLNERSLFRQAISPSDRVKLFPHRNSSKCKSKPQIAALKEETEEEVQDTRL

Assays:
MDCK-Wild Type = MDCK-Wild Type permeability, 96 well + 0.1% BSA; format: in vitro ADME; conditions: A-B direction
human PXR = human PXR (Homo sapiens, UniProt O75469); assay: PXR assay: PXR mediated CYP3A4 induction in DPX-2 cell line; conditions: DPX-2 cells
F508del-CFTR = F508del-CFTR (Homo sapiens, UniProt P13569, DEL508-508); assay: Membrane potential optical (FLIPR) assay for F508del-CFTR modulators in NIH 3T3 cells; conditions: read-out: CFTRdF508 Cor 3T3 FLIPR 384 CFTRdF508 MP 3T3 770 EC50; NIH 3T3 cells expressing F508del; assay A1
Description: Membrane Potential Optical Methods for Assaying Properties of F508del-CFTR Modulators
The assay utilizes fluorescent voltage sensing dyes to measure changes in membrane potential using a fluorescent plate reader (e.g., FLIPR III, Molecular Devices, Inc.) as a readout for increase in functional F508del in NIH 3T3 cells. The driving force for the response is the creation of a chloride ion gradient in conjunction with channel activation and concurrent with compound treatment by a single liquid addition step after the cells have previously been loaded with a voltage sensing dye.
A1. Identification of F508del-CFTR Modulators
To identify modulators of F508del, a fluorescence based HTS assay format was developed. This HTS assay utilizes fluorescent voltage sensing dyes to measure changes in membrane potential on the FLIPR III as a measurement for increase in gating (conductance) of F508del NIH 3T3 cells. The driving force for the response is the creation of a chloride ion gradient in conjunction with channel activation and concurrent with compound treatment by a single liquid addition step after the cells have previously been loaded with a voltage sensing dye.
Bath Solution #1: (in mM) NaCl 160, KCl 4.5, CaCl2 2, MgCl2 1, HEPES 10, pH 7.4 with NaOH, Glucose 10.
Chloride-free bath solution: Chloride salts in Bath Solution #1 (above) are substituted with gluconate salts. […]

Row | Structure (SMILES) | MDCK-Wild Type-Permeability 96 well + 0.1% BSA Papp compound (A-B) (MDCK-Wild Type) | CYP3A4 Induction-PXR human PXR internal Max % Activity (human PXR) [%] | EC50 (F508del-CFTR) [nM]
1 | Cc1c(S(=O)(=O)NC(=O)c2ccc(-n3ccc(COCC4(C(F)(F)F)CC4)n3)nc2N2C[C@@H](C)CC2(C)C)cnn1C | 1.3 10E-6 cm/s | 6 | 440
2 | Cc1c(S(=O)(=O)NC(=O)c2ccc(-n3ccc(OCCC(F)(F)F)n3)nc2N2C[C@@H](C)CC2(C)C)cnn1C |  | 33.5 | 860
